Experimental data as given in PubChem BioAssay AID739 (SRMLSC, 2007).
This is a selection; strong and weak results do not stand in their true shares. Calls of active or inactive are those of the source. Cut-off read from the data, not from the text of the source: active = inhibition above about 30%; inactive = the rest.

Experiment: phenotypic screen on post-Golgi transport, primary screen (AID 739);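 note: yeast cells grown in 1536-well plates; yeast grown about 18 h at 30C before absorbance read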
Conditions: post-Golgi transport phenotypic cell assay; at 10 µM; hits give high values

| SMILES | inhibition |
| --- | --- |
| CP(=O)(OC12CC3CC(CC(C3)C1)C2)OC12CC3CC(CC(C3)C1)C2 | inactive: -0.16% |
| CCN(CC)CC(O)COC(=O)C(O)(c1ccccc1)C1CCCCC1 (configuration not stated) | inactive: -6.25% |
| CP(=O)(Oc1ccccc1)N1CCOC1=O (configuration not stated) | inactive: 0.97% |
| CC(C)(C)c1ccc(OP(C)(=O)O)cc1 | inactive: -9.5% |
| CP(=O)(Nc1ccc(Cl)cc1)Oc1ccc(F)cc1 (configuration not stated) | inactive: 2.08% |
| COc1ccc(OP(C)(=O)Nc2ccccn2)cc1 (configuration not stated) | inactive: -0.16% |
| CN(C)CCOC(=O)C(O)(c1ccccc1)C1CCCC1 (configuration not stated) | inactive: 0.78% |
| Cc1c(NP(C)(=O)Oc2ccc(C(C)C)cc2)c(=O)n(-c2ccccc2)n1C (configuration not stated) | inactive: 4.38% |
| COc1ccccc1OP(C)(=O)Nc1ccc(C)cc1C (configuration not stated) | inactive: -0.65% |
| CP(=O)(Nc1ccccn1)Oc1ccccc1 (configuration not stated) | inactive: 7.93% |
| CCc1ccc(OP(C)(=O)O)cc1 | inactive: 16.8% |
| COc1ccccc1OP(C)(=O)Nc1ccc(C)c(C)c1 (configuration not stated) | inactive: 3.29% |
| Cc1nc2ccc3ccccc3c2o1.O=[N+]([O-])c1cc([N+](=O)[O-])c(O)c([N+](=O)[O-])c1 | inactive: -2.58% |
| CP(=O)(Nc1ccccc1)Oc1ccc(F)cc1 (configuration not stated) | inactive: -4.97% |
| CP(=O)(Nc1ccccc1F)Oc1ccccc1 (configuration not stated) | inactive: 4.97% |
| CCOP(C)(=S)SCC(=O)NC(C)(CC)C(=O)O (configuration not stated) | active: 51.8% |

| SMILES | inhibition |
| --- | --- |
| CP(=O)(Nc1ccc2c(c1)OCCO2)Oc1ccccc1 (configuration not stated) | inactive: -5.06% |
| Cc1ccccc1NP(C)(=O)Nc1ccccc1C | inactive: -4.73% |
| COc1ccc(OP(C)(=O)Nc2cccc(Br)c2)cc1 (configuration not stated) | inactive: -2.12% |
| CN(C)CCOC(=O)C(O)(c1ccccc1)C1CCCCC1 (configuration not stated) | inactive: 7.44% |
| COc1ccccc1OP(C)(=O)Nc1c(C)cccc1C (configuration not stated) | inactive: -7.66% |
| Cc1nc2ccc3ccccc3c2s1.O=[N+]([O-])c1cc([N+](=O)[O-])c(O)c([N+](=O)[O-])c1 | inactive: -3.71% |
| Cc1cc(C)cc(OP(C)(=O)Nc2ccc(C)cc2C)c1 (configuration not stated) | inactive: -3.42% |
| Cc1ccc(C)c(NP(C)(=O)Oc2ccccc2)c1 (configuration not stated) | inactive: 26% |
| Cc1cc(C)cc(OP(C)(=O)Nc2ccccn2)c1 (configuration not stated) | inactive: 8.69% |
| Cc1ccc(NP(C)(=O)Oc2ccccc2)c(C)c1 (configuration not stated) | inactive: 1.57% |
| COc1ccccc1OP(C)(=O)Nc1ccc(C)cc1 (configuration not stated) | inactive: 2.97% |
| COc1ccc(OP(C)(=O)Nc2cccc(F)c2)cc1 (configuration not stated) | inactive: 2.14% |
| CP(=O)(NC(=O)Nc1ccccc1)Oc1ccccc1 (configuration not stated) | inactive: -3.67% |
| CCOP(C)(=S)SCC(=O)NC(C)C(=O)O (configuration not stated) | inactive: -15.9% |
| CP(=O)(Nc1ccccn1)Oc1ccc(Cl)cc1 (configuration not stated) | inactive: 19.5% |
| CP(=S)(Nn1cnnc1)Oc1ccccc1 (configuration not stated) | inactive: 17.4% |
